Earlier results as cited in patent US6854395B2, “Inflator for an air bag” (dated 2005).

Tested on: rat

For `NNc1nc(NN)nc(NN)n1`, the “LD50 (oral-rat)” value is given as 3161 mg/kg.
